# Source: patent publication US9205154B2, “Method for screening an agent being useful for the treatment of dry eye and/or corneal and conjunctival lesion and a pharmaceutical composition obtained by the method” (R-TECH UENO, LTD., priority 2009, dated 2015)
# Test system: cornea of rabbits with n-heptanol-induced keratoconjunctival injury
# Test: Model rabbit of n-heptanol-induced corneal and conjunctival lesion; fluorescein staining score of cornea
# Assay type: in vivo, Rabbits (std:NZW)
substance,measurement,setting,value
"10% nHSA: Kenketsu albumin-Wf (25% human serum albumin formulation, Mitsubishi Tanabe Pharma) diluted with sodium chloride solution","Scores of fluorescein staining (mean of 6 cases), Day 0","Day 0 (day of n-heptanol treatment), ocular, 50 μl/eye, 2 times per day for 10 days, total score out of 15, smaller = higher restoring effect",15.00
same,"Scores of fluorescein staining (mean of 6 cases), Day 1","Day 1, ocular, 50 μl/eye, 2 times per day for 10 days, total score out of 15",15.00
same,"Scores of fluorescein staining (mean of 6 cases), Day 2","Day 2, ocular, 50 μl/eye, 2 times per day for 10 days, total score out of 15",15.00
same,"Scores of fluorescein staining (mean of 6 cases), Day 3","Day 3, ocular, 50 μl/eye, 2 times per day for 10 days, total score out of 15",14.83
same,"Scores of fluorescein staining (mean of 6 cases), Day 3.5","Day 3.5, ocular, 50 μl/eye, 2 times per day for 10 days, total score out of 15",13.83
same,"Scores of fluorescein staining (mean of 6 cases), Day 4","Day 4, ocular, 50 μl/eye, 2 times per day for 10 days, total score out of 15",12.83 *
same,"Scores of fluorescein staining (mean of 6 cases), Day 4.5","Day 4.5, ocular, 50 μl/eye, 2 times per day for 10 days, total score out of 15",11.00 **
same,"Scores of fluorescein staining (mean of 6 cases), Day 5","Day 5, ocular, 50 μl/eye, 2 times per day for 10 days, total score out of 15",7.17 *
same,"Scores of fluorescein staining (mean of 6 cases), Day 5.5","Day 5.5, ocular, 50 μl/eye, 2 times per day for 10 days, total score out of 15",6.17 *
same,"Scores of fluorescein staining (mean of 6 cases), Day 6","Day 6, ocular, 50 μl/eye, 2 times per day for 10 days, total score out of 15",4.83 *
same,"Scores of fluorescein staining (mean of 6 cases), Day 7","Day 7, ocular, 50 μl/eye, 2 times per day for 10 days, total score out of 15",3.17
same,"Scores of fluorescein staining (mean of 6 cases), Day 8","Day 8, ocular, 50 μl/eye, 2 times per day for 10 days, total score out of 15",1.83
same,"Scores of fluorescein staining (mean of 6 cases), Day 9","Day 9, ocular, 50 μl/eye, 2 times per day for 10 days, total score out of 15",1.50
same,"Scores of fluorescein staining (mean of 6 cases), Day 10","Day 10, ocular, 50 μl/eye, 2 times per day for 10 days, total score out of 15",1.50 *
same,effect of restoring corneal tissue compared with serum,comparison of Test Example 3 with Test Example 1,equal to or more than that of serum
same,scores of fluorescein staining of cornea compared to saline,"days 4, 4.5, 5, 5.5, 6 and 10 of the treatment of lesion (Days 4, 5, 5.5, 6, 10: p<0.05; Day 4.5: p<0.01)",significantly lowered
same,effect of restoring corneal tissue / corneal epithelium,"versus saline in the other eye, Paired Student's t-test, significance level less than 5%, result in words",significant effect of restoring corneal tissue

# Marks after values point to notes of the source that are not given here.
